# Source: PMC5441875 (eLife, 2017)
# Protein sequences, listed by entry. Tags and fused reporters are not part of them. Residues count along the entry.
# UniProt Q00959, 23-1464: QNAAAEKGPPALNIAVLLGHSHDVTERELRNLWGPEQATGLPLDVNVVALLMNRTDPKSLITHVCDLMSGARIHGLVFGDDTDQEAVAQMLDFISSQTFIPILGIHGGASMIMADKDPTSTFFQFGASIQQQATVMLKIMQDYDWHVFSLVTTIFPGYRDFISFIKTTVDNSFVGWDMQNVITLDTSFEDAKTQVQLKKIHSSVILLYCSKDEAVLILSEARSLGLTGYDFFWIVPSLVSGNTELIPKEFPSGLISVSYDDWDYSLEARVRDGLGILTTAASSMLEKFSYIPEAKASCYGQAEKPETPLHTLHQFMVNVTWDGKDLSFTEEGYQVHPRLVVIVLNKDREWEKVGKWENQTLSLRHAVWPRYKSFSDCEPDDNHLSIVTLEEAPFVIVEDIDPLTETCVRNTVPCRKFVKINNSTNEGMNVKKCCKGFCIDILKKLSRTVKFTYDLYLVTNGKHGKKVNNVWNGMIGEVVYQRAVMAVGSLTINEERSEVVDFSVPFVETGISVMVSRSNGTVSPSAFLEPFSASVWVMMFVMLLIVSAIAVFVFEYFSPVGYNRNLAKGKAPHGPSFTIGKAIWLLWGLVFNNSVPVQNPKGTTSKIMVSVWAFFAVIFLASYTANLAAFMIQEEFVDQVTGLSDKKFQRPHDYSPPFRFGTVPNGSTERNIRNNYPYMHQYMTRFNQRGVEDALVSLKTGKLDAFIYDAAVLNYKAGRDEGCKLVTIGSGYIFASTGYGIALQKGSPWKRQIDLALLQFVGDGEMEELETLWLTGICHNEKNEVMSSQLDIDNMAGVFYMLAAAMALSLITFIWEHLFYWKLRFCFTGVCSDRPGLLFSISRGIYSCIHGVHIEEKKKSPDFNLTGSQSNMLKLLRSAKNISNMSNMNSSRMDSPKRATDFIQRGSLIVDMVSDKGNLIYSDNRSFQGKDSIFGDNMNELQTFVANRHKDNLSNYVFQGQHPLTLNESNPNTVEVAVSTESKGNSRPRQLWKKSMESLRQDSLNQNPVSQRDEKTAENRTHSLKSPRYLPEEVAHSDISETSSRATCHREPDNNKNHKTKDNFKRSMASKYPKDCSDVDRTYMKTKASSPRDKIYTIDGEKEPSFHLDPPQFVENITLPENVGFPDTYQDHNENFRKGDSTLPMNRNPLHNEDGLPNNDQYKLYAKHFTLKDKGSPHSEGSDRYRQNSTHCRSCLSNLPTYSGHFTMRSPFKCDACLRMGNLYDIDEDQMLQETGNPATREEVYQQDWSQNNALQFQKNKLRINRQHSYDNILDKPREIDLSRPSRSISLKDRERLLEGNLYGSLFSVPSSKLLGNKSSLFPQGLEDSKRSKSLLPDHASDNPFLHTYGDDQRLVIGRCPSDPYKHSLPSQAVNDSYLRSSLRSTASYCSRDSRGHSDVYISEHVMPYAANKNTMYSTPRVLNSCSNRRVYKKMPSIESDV
# Molecular target: WT GluN1/GluN2A receptors (Rattus norvegicus, UniProt P35439+Q00959)
# Description: Receptor functionality and light-sensitivity were assessed in patch-clamp recordings of lifted whole cells 24–72 hr post transfection. Positively transfected cells were visualized by GFP-fluorescence. […] The osmolarity was 270–290 mOsm. The cells were continuously perfused with a Ringer solution containing (in mM): 140 NaCl, 2.8 KCl, 1 CaCl2, 0.01 DTPA, 10 HEPES and five sucrose (pH 7.3 with NaOH). The osmolarity was 290 mOsm. DTPA was added to prevent tonic inhibition of NMDARs by ambient zinc ([Paoletti et al., 1997]). Currents were recorded using an Axopatch 200B amplifier and a Digidata 1550A interface (Molecular Devices), sampled at 10–20 kHz, and low-pass filtered at 2–5 kHz. The cells were voltage-clamped at −60 mV. pClamp 10.5 (Molecular Devices) was used to acquire the data. […]
# Agonists or other pharmacological substances were applied using a multi-barrel rapid solution exchanger system (RSC 200, Bio-Logic). […] The agonist deactivation kinetics were assessed by including the converse co-agonist to the control solution. […]
# Computer-controlled light pulses during electrophysiological recordings were provided from sensitive high power LEDs (Prizmatix). […] The LED port was directly coupled via a microscope adaptor to the fluorescence port of an inverted DIAPHOT 300 Nikon microscope. […]
# The weighted deactivation time constants were calculated with: τw =( Af/(Af+As))*τf + (As /(Af + As))*τs.
smiles,measurement,setting,value
NCC(=O)O [glycine],"mean weighted deactivation time constant τdeact,UV",UV,166 ± 30 ms
same,"mean weighted deactivation time constant τdeact,DARK","dark, 800 ms agonist jumps",184 ± 16 ms
